The data set deals with Caco-2 cells. The data set is described as follows: Flux assay for cell permeability using Caco-2 cells. Conditions: for Papp (B-A): Caco-2, basal to apical, 2 hours. For orientation: Caco-2 monolayers are a common model of the intestinal barrier.

With `CC(C)(C)[C@H](c1cc(-c2cc(F)ccc2F)cn1Cc1ccccc1)N(CC[C@H](N)C(=O)NCCNC(=O)CNC(=O)C(CC(=O)O)SC[C@H](N)C(=O)O)C(=O)CO` (stereo partly drawn) [Example M27, 4-[(2-{[2-({(2S)-2-Amino-4-[{(1R)-1-[1-benzyl-4-(2,5-difluorophenyl)-1H-pyrrol-2-yl]-2,2-dimethylpropyl}(glycoloyl)amino]butanoyl}amino)ethyl]amino}-2-oxoethyl)amino]-3-{[(2R)-2-amino-2-carboxyethyl]sulphanyl}-4-oxobutanoic acid-trifluoroacetic acid (1:1)], the “Papp (B-A)” value came to 1.32 ×10⁻⁶ cm/s.

Regarding `CC(C)(C)[C@H](c1cc(-c2cc(F)ccc2F)cn1Cc1ccccc1)N(CCCN)C(=O)CO` [Example M9, N-(3-Aminopropyl)-N-{(1R)-1-[1-benzyl-4-(2,5-difluorophenyl)-1H-pyrrol-2-yl]-2,2-dimethylpropyl}-2-hydroxyacetamide], the “Papp (B-A)” value turned out to be 21.3 ×10⁻⁶ cm/s.

For `CC(C)(C)[C@H](c1cc(-c2cc(F)ccc2F)cn1Cc1ccccc1)N(CCCN)C(=O)CSC[C@H](N)C(=O)O.O=C(O)C(F)(F)F.O=C(O)C(F)(F)F` [Example M11, S-{2-[(3-Aminopropyl) {(1R)-1-[1-benzyl-4-(2,5-difluorophenyl)-1H-pyrrol-2-yl]-2,2-dimethylpropyl}amino]-2-oxoethyl}-L-cysteine/trifluoroacetic acid (1:2)], the “Papp (B-A)” value worked out at 2.43 ×10⁻⁶ cm/s. The Efflux ratio (Caco-2, ratio of Papp (B-A) to Papp (A-B)) is reported as 27.7.
